Assay results from patent publication US20120115785.

Target: β-actin of pulmonary artery endothelial cells (PAEC), Q6QAQ1

B1: eNOS of pulmonary artery endothelial cells (PAEC) (protein)
chain: GNLKSVGQEPGPPCGLGLGLGLGLCGKQGPATPAPEPSRAPAPATPHAPEHSPAPNSPTLTRPPEGPKFPRVKNWEVGSITYDTLCAQSQQDGPCTPRRCLGSLVLPRKLQSRPSPGPPPAEQLLSQARDFINQYYSSIKRSGSQAHEERLQEVEAEVATTGTYHLGESELVFGAKQAWRNAPRCVGRIQWGKLQVFDARDCSSAQEMFTYICNHIKYATNRGNLRSAITVFPQRTPGRGDFRIWNSQLVRYAGYRQQDGSVRGDPANVEITELCIQHGWTPGNGRFDVLPLLLQAPDEPPELFALPPELVLEVPLEHPTLEWFAALGLRWYALPAVSNMLLEIGGLEFPAAPFSGWYMSTEIGTRNLCDPHRYNILEDVAVCMDLDTRTTSSLWKDKAAVEINLAVLHSYQLAKVTIVDHHAATASFMKHLENEQKARGGCPADWAWIVPPISGSLTPVFHQEMVNYVLSPAFRYQPDPWKGSAAKGTGIARKKTFKEVANAVKISASLMATVMPKRVKASILYASETVRAQSYAQQLGRLFRKAFDPRVLCMDEYDVVSLEHETLVLVVTSTFGNGDPPENGESFAAALMEMSGPYNGSPRPEQHRSYKIRFNSVSCSDPLVSSWRRKRKESSNTDSAGALGTLRFCVFGLGSRAYPHFCAFARAVDTRLEELGGERLLQLGQGDELCGQEEAFRGWAQAAFQASCETFCVGEDAKAAARDIFSPKRSWKRQRYRLSAQVEGLQLLPGLVHVHRRKMFQATVLSVENLQSSKSTRATILVRLDTEGQEGLQYQPGDHIGICPPNRTGLVEALLSRVEDPTPPTESVGVEQLEKGSPGGPPPSWVRDPRLPPYTLRQALTFFLDITSPPSPRLLRVLSTLAEEPSEQQELETLSQDPRRYEEWKWFRCPTLLEVLEQFPSVALPTPLLLTQLALLQPRYYSVSSAPSTYPGEIHPTVAVLAYRTQDGLGPLHYGVCSTWLGQLKPGDPVPCFIRAAPSFRLPPDPSLPCILVGPGTGIAPFRGFWQERLHDIESKGLQPAPMTLVFGCRCSQLDHLYRDEVQDAQQRGVFGRVLTAFSREPDSPKTYVQDILRTELAAEVHRVLCLERGHMFVCGDVTMATSVLQTVQRILATEGNMELDEAGDVIGVLRDQQRYHEDIFGLTLRTQEVTSRIRTQSFSLQERHLRGAVPWTFDPPGPDTPGP
eNOS activity in PAEC after β-actin siRNA: reducing β-actin availability prevented hyperoxia-induced increase in eNOS activity
